Consider 1 substance from patent publication US5641861A, “μopioid receptor ligands: agonists and antagonists” (Torrey Pines Institute For Molecular Studies, priority 1995, dated 1997).

Protein sequences, listed by entry. Tags and fused reporters are not part of them. Lines headed by an entry give the natural chain unless they say otherwise; changes in a name come on top.
UniProt P41144: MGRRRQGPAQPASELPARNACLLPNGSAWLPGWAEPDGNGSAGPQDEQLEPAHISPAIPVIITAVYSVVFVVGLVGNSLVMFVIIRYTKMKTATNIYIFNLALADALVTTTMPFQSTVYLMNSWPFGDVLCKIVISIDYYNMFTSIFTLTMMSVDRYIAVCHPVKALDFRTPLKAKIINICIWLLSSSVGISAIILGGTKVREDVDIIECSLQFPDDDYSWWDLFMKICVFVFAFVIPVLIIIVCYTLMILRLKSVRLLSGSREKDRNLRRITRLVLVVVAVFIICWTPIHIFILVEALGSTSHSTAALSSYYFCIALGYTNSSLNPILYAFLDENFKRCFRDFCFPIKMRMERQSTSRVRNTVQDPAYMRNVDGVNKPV
UniProt P33535, whole entry: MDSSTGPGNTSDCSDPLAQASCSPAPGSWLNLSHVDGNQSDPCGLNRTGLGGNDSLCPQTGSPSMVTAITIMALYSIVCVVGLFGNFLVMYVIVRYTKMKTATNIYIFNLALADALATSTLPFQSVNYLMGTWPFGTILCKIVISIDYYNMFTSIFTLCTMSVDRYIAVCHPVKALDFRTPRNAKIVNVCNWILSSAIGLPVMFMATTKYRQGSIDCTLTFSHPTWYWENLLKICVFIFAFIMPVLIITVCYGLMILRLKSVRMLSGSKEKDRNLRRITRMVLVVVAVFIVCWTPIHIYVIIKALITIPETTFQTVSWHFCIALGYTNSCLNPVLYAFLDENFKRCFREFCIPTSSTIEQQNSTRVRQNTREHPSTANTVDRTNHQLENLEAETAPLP
UniProt P33533, whole entry: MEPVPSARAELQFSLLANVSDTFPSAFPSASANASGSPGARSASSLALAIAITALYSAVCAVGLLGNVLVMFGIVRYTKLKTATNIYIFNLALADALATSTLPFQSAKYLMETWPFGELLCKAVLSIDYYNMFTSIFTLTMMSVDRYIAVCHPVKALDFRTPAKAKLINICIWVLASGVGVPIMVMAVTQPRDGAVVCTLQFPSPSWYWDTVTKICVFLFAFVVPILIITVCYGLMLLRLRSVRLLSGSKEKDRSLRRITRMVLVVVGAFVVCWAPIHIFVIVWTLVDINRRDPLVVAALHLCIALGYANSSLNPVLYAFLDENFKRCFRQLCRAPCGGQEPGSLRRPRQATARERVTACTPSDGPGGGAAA

What all share (assay type): binding
One assay deals with T1, κ receptors (Cavia porcellus, UniProt P41144).
T1 construct: tissue homogenates prepared from guinea pig brains (cortex and cerebellum); tissue Harlan Bioproducts for Science; host or cells: guinea pig brain (cortex and cerebellum) homogenate
The assay is described as follows: Radioreceptor assay selective for κ receptors ([3H]-U69,593). As to conditions: Table 10; [3H]-U69,593 3 nM, guinea pig brain homogenates. Here is the method: Assays selective for κ receptors were carried out using [^3 H]-U69,593 (3 nM, specific activity 62 Ci/mmol) as the radioligand and tissue homogenates prepared from guinea pig brains (cortex and cerebellum) using Tris buffer containing 100 μM PMSF, 5 mMMgCl2 and 1 mg/ml BSA, pH 7.4. Sample tubes were incubated for 2.5 hr.

Another assay concerns the target T2, μ receptor (Rattus norvegicus, UniProt P33535).
T2 construct: radioreceptor assay using rat brain homogenates and [^3 H]-DAMGO as radioligand; tissue Harlan Bioproducts for Science; host or cells: rat brain (cerebellum removed), crude membrane homogenate
The assay is described as follows: Radioreceptor assay selective for the mu receptor ([3H]-DAMGO). As to conditions: Table 10, rat brain homogenates. Here is the method: Following incubation, the suspensions were centrifuged as above, the resulting pellets resuspended in 100 volumes of Tris buffer and the suspensions combined. Membrane suspensions were prepared and used in the same day.
Binding assays were carried out in polypropylene tubes. […] Bound radioactivity was counted on a Beta-plate Liquid Scintillation Counter (Life Technologies, Gaithersburg, Md.) and expressed in counts per minute (cpm). […] Competitive inhibition assays were performed as above using serial dilutions of the peptide mixtures. IC50 values were then calculated using the software […] (ISI, San Diego, Calif.).

In a further assay the target is T3, δ receptors (Rattus norvegicus, UniProt P33533).
T3 construct: Radioreceptor assays selective for δ receptors were performed using rat brain homogenates; tissue Harlan Bioproducts for Science; host or cells: rat brain crude membrane homogenate
The assay is described as follows: Radioreceptor assay selective for δ receptors ([3H]-naltrindole). The conditions noted are these: Table 10; [3H]-naltrindole 0.5 nM, rat brain homogenates. Here is the method: Radioreceptor assays selective for δ receptors were performed using rat brain homogenates as above and [^3 H]-naltrindole (0.5 nM, specific activity 34.7 Ci/mmol) as radioligand in Tris buffer containing 100 μM phenylmethylsulfonyl fluoride (PMSF), 5 mMMgCl2 and 1 mg/ml bovine serum albumin (BSA), pH 7.4. Samples were incubated for 2.5 hr. Standard curves were prepared using 0.10-3200 nM [^3 H]-D-Pen2, Pen5 ]-enkephalin ([^3 H]-DPDPE).

pIC50: −log10 of the molar value.

For orientation: pIC50 means −log10 of the IC50, conventionally taken in molar units. In the case of Trp--Trp--Pro--Arg--NH2 [SEQ ID NO. 69], the pIC50 at κ receptors is 4.69; against μ receptor, 8.00; at δ receptors, 4.76.
